From PubChem BioAssay AID463079 (The Scripps Research Institute Molecular Screening Center, 2010)
Only a part is listed here, and it is no random draw. Activity calls are given as the source filed them.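 Rule for the calls: active = inhibition above that plate's mean sample inhibition plus 3 SD (cut at about 26% in these data); inactive = the rest.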

Assay: nonselective Gq signaling inhibition in CHO cells – cell-based, fluorescence, Fluo-8 calcium dye, counter-screen for OX1R antagonist project, primary screen (AID 463079);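 note: 0% = ATP-challenged DMSO wells and 100% = DMSO wells without ATP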
Conditions: parental CHO-K1, ATP-induced calcium, Fluo-8 fluorescence; at 5.6 µM; active compounds read high
Method in brief: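 Assay system: parental CHO cells; Read-out basis: percent inhibition of ATP-evoked calcium rise, normalized to controls; Benchmarks: ATP and no-ATP DMSO wells; Compound dosing: single nominal dose of 5.6 µM per compound; Signal: Fluo-8 calcium dye fluorescence; Also added: ATP as calcium-mobilizing challenge; Repeats: singlicate.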
For `CCCOc1ccc(NP(C)(=O)Oc2ccc(Cl)cc2)cc1` (stereo unspecified), the inhibition was inactive: -18%.
